Experimental data as given in patent publication US6686382B2, “Sulfonamides and derivatives thereof that modulate the activity of endothelin” (Encysive Pharmaceuticals Inc., priority 1999, dated 2004).

The chains behind the UniProt entries cited, without tags or fusion partners. Residues count along the entry.
UniProt P08684, 2-503 limits assumed: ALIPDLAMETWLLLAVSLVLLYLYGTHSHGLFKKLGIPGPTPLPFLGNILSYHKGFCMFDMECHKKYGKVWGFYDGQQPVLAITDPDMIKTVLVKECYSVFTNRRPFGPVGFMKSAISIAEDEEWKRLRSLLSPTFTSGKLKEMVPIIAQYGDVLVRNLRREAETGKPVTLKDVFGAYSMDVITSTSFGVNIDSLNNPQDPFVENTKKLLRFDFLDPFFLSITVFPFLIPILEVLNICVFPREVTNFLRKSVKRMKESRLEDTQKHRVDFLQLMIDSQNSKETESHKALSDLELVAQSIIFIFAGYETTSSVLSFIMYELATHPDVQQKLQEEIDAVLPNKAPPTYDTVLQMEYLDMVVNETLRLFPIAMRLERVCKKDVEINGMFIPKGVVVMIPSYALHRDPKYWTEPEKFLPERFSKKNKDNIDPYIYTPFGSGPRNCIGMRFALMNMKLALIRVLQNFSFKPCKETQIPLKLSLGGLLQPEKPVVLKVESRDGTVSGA
UniProt P33261, whole entry: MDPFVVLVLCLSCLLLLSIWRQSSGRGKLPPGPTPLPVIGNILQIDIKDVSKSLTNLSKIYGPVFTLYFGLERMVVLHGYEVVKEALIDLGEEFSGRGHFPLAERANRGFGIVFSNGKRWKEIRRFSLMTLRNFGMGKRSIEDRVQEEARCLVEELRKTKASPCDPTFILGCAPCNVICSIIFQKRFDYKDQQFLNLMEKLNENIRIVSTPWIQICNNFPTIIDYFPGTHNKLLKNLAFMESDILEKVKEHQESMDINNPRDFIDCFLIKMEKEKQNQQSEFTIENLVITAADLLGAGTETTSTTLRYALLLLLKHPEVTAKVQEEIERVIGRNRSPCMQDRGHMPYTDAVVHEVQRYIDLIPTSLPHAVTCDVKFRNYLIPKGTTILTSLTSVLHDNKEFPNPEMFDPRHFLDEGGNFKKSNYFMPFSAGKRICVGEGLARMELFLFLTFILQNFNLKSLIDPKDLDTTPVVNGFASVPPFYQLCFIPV
UniProt P25101, 21-427 limits assumed: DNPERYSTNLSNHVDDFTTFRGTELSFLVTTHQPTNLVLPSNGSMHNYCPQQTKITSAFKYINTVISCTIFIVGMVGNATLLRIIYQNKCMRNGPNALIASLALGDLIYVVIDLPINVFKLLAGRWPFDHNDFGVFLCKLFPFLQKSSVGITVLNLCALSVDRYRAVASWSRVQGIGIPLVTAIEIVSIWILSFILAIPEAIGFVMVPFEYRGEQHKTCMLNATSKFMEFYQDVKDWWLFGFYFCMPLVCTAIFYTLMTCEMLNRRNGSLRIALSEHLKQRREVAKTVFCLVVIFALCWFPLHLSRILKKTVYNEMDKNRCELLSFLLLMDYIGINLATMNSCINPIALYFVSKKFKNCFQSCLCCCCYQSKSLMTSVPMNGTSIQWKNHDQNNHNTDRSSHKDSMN
UniProt P11712, whole entry: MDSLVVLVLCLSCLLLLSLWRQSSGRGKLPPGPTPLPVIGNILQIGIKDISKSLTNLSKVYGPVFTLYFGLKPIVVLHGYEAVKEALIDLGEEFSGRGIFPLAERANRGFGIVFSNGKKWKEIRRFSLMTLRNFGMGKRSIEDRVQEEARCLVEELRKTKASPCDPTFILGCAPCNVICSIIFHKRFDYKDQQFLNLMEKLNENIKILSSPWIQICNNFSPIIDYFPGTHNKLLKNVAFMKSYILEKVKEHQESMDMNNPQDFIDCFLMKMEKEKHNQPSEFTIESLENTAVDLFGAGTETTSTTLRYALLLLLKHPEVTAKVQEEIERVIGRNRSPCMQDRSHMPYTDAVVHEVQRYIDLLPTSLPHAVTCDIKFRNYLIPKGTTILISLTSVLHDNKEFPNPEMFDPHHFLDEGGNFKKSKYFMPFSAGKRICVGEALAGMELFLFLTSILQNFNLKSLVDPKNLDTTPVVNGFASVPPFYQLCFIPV

Columns and labels:
CYP3A4 = CYP3A4 (Homo sapiens, UniProt P08684); test: Cytochrome P450 enzyme assay, CYP3A4 (Gentest Supersomes, fluorometric); conditions: read-out: CP450 3A4 IC50; human recombinant enzyme, mean IC50
Experimental: (§1) In vitro assays to determine the concentration of the compounds provided herein required for 50% inhibition of substrate metabolism (IC50) by different human cytochrome P450 enzymes (2C9, 2C19, 3A4) were conducted using human recombinant cytochrome P450 enzyme assays, developed by Gentest Corporation. These assays contain Gentest Supersomes™ (specific human cytochrome P450 enzyme, co-expressed with P450 reductase and cytochrome b5), a NADPH regenerating system, substrate and a concentration range of the compounds provided herein. The fluorescent product was the measured end point for these assays. IC50s were calculated using a four-parameter logistic equation with the bottom fixed at 0% inhibition and the top fixed at 100% inhibition. (Values are the mean IC50±SD when n is greater than 1.)
(§2) Assays were conducted in 96-well microtiter plates using fluorometric assays developed by Gentest Corporation. The 12 wells in each row were used for one inhibition curve. Wells 1 to 8 contained serial 1:3 dilutions of the test compound. Wells 9 to 12 contained no inhibitor and wells 11 and 12 were blanks for background fluorescence (stop solution was added before the enzyme). All concentration curves were performed in duplicate. […] Metabolite production per well was determined by measuring fluorescence using a fluorescent plate reader. […]
A 0.2 ml/well reaction mixture containing 4 pmol CYP3A4 (P202), 1.3 mM NADP^+, 3.3 mM glucose-6-phosphate, 3.3 mM magnesium chloride 0.4 U/ml glucose-6-phosphate dehydrogenase, 0.01% pluronic F68, and 50 μM resorufin benzyl ether in 200 mM potassium phosphate (pH 7.4), was incubated at 37° C. for 30 minutes. […] After incubation, the reaction was stopped by the addition of 75 μl stop solution (80% acetonitrile/20% 0.5 M Tris base) and fluorescence/well was measured within 1 hour using a Spectra Fluor (Tecan) fluorescent plate reader. […]
(§3) The “% inhibition” was calculated as follows: [formula]
(§4) Concentration versus % inhibition curves were constructed in Prism (GraphPad, Inc.). The data was analyzed using “Top & Bottom Fixed” routine. […]

[1] = test system: ETA receptors and ETB receptors; test: Endothelin binding inhibition, ETA (TE 671) and ETB (transfected COS7) receptors: selectivity; conditions: antagonism of ETA receptors over ETB receptors
CYP2C19 = CYP2C19 (Homo sapiens, UniProt P33261); test: Cytochrome P450 enzyme assay, CYP2C19 (Gentest Supersomes, fluorometric); conditions: read-out: CP450 2C19 IC50; human recombinant enzyme, mean IC50
Experimental: as §1, §2
A 0.2 ml/well reaction mixture containing 1 pmol CYP2C19 (P259), 1.3 mM NADP^+, 3.3 mM glucose-6-phosphate, 3.3 mM magnesium chloride, 0.4 U/ml glucose-6-phosphate dehydrogenase and 25 μM 3-cyano-7-ethoxycoumarin in 50 mM potassium phosphate (pH 7.4), was incubated at 37° C. for 45 minutes. […] After incubation, the reaction was stopped by the addition of 75 μl stop solution (80% acetonitrile/20% 0.5 M Tris base) and fluorescence/well was read within 1 hour using a Spectra Fluor (Tecan) fluorescent plate reader. […]
as §3, §4

human ETA receptors = human ETA receptors (Homo sapiens, UniProt P25101); test: Endothelin binding inhibition, Binding Test #1: inhibition of binding to ETA receptors (TE 671 cell membranes); conditions: relative to N-(4-chloro-3-methyl-5-isoxazolyl)-2-{[3,4-(methylenedioxy)-6-methylphenyl)acetyl]-thiophene-3-sulfonamide (= 1.0)
Source text: Compounds that are potential endothelin antagonists are identified by testing their ability to compete with ^125I-labeled ET-1 for binding to human ETA receptors or ETB receptors present on isolated cell membranes. The effectiveness of the test compound as an antagonist or agonist of the biological tissue response of endothelin can also be assessed by measuring the effect on endothelin induced contraction of isolated rat thoracic aortic rings. The ability of the compounds to act as antagonists or agonists for ETB receptors can be assess by testing the ability of the compounds are to inhibit endothelin-1 induced prostacyclin release from cultured bovine aortic endothelial cells.
A. Endothelin Binding Inhibition—Binding Test #1: Inhibition of Binding to ETA Receptors
TE 671 cells (ATCC Accession No. HTB 139) express ETA receptors. These cells were grown to confluence in T-175 flasks. Cells from multiple flasks were collected by scraping, pooled and centrifugedfor 10 min at 190×g. The cells were resuspended in phosphate buffered saline (PBS) containing 10 mM EDTA using a Tenbroeck homogenizer. […]
The supernatant, containing unbound radioactivity, was decanted and the pellet counted on a Genesys multiwell gamma counter. The degree of inhibition of binding (D) was calculated according to the following equation: [formula] […]

CYP2C9 = CYP2C9 (Homo sapiens, UniProt P11712); test: Cytochrome P450 enzyme assay, CYP2C9 (Gentest Supersomes, fluorometric); conditions: read-out: CP450 2C9 IC50; human recombinant enzyme, mean IC50
Experimental: as §1, §2
A 0.2 ml/well reaction mixture containing 2 pmol CYP2C9 (P258), 1.3 mM NADP^+, 3.3 mM glucose-6-phosphate, 3.3 mM magnesium chloride, 0.4 U/ml glucose-6-phosphate dehydrogenase and 75 μM 7-methoxy-4-trifluoromethylcoumarin in […] (pH 7.4), was incubated at 37° C. for 45 minutes. […] After incubation, the reaction was stopped by the addition of 75 μl stop solution (80% acetonitrile/20% 0.5 M Tris base) and fluorescence/well was measured using a Spectra Fluor (Tecan) or Cytoflour 2350 (Millipore) fluorescent plate reader. […]
as §3, §4

[2] = test system: rats exposed to acute hypoxia; test: Acute hypoxia model, mean pulmonary arterial pressure (MPAP) increase; conditions: in vivo model, rat
Experimental: The chamber was gassed by adding N2 to the chamber intermittently from a liquid N2 reservoir. A baralyme (Allied Health Care Products, St. Louis, Mo., USA) CO2 scrubber kept the CO2 concentration <0.2%. Relative humidity within the chamber was kept <70% with anhydrous CaSO4. Boric acid was used to keep NH3 levels within the chamber at a minimum. See, Tilton et al. (2000) Pulm. Pharm. Ther. 13:87-97. In the initial experiment, effects of a test compound were assessed on mean pulmonary arterial pressure (MPAP) of rats subsequently exposed to acute hypoxia 90 min in duration. […] All catheters were connected to polyethylene (PE 20) tubing, and were exteriorized at the back of the neck by a stainless steel wire (0.018 in. diam) tunneled subcutaneously. Two days later, MPAP was recorded through the femoral and pulmonary arterial cannulas via transducers coupled to a polygraph recorder. […] Pulmonary pressure rapidly returned toward baseline values when this group was returned to room air at the end of the experiment.

[3] = Pharmacokinetic properties (oral availability, elimination half-life, Cmax); conditions: in vivo
Source text: As used herein, bioavailability or oral availability refers to the rate and extent of absorption. Methods for determining bioavailability or oral availability are well known to those of skill in the art. For example, bioavailability or oral availability of any of the compounds described herein can be determined empirically by administration of the compound to an animal, followed by taking blood samples over time and measuring the blood concentration of the compound. In vivo half life (t1/2) is defined as the time it takes for the concentration of the compound in the blood to be reduced by one-half. Estimations of the area under the curve for intravenous administration can be used to estimate the area under the curve for oral administration, yielding bioavailability data. See, e.g., Milo Gibal (1991) Biopharmaceutics and Pharmacology, 4th edition (Lea and Sediger).

| pIC50 (CYP3A4) | Selectivity (IC50 for ETB/IC50 for ETA) [1] | pIC50 (CYP2C19) | pIC50 (CYP2C9) | Cmax [3] | t½ elim. [3] | SMILES | ETA ACTIVITY (ETA antagonist activity relative to reference compound) (human ETA receptors) | Acute Hypoxia: dose to achieve 50% inhibition of mean pulmonary artery pressure increase [2] |
| --- | --- | --- | --- | --- | --- | --- | --- | --- |
| 5.48 | 330000 | 4.84 | 5.62 | 85.8 µg | – | Cc1cc(C)c(NC(=O)c2sccc2S(=O)(=O)Nc2onc(C)c2C)c(C#N)c1C [Compound 9, N-(2-cyano-3,4,6-trimethylphenyl)-3-{[(3,4-dimethyl-5-isoxazolyl)amino]sulfonyl}-2-thiophenecarboxamide] | – | – |
| 5.84 | 550000 | 4.87 | 6.11 | 45.7 µg | 5.1 h | Cc1cc(C)c(NC(=O)c2sccc2S(=O)(=O)Nc2onc(C)c2Cl)c(C#N)c1C [Compound 32, 3-{[(4-chloro-3-methyl-5-isoxazolyl)amino]sulfonyl}-N-(2-cyano-3,4,6-trimethylphenyl)-2-thiophenecarboxamide] | – | – |

| SMILES | pIC50 (CYP3A4) | Selectivity (IC50 for ETB/IC50 for ETA) [1] | pIC50 (CYP2C19) | pIC50 (CYP2C9) | Cmax [3] | t½ elim. [3] | ETA ACTIVITY (ETA antagonist activity relative to reference compound) (human ETA receptors) | Acute Hypoxia: dose to achieve 50% inhibition of mean pulmonary artery pressure increase [2] |
| --- | --- | --- | --- | --- | --- | --- | --- | --- |
| Cc1cc(C)c(NC(=O)c2sccc2S(=O)(=O)Nc2onc(C)c2Cl)c(C(=O)CS(C)(=O)=O)c1 | 5.40 | 66500 | 4.30 | 5.29 | – | – | 13.7 | >5 mg/kg |

pIC50: −log10 of the molar value.
